For this test, the target named is T1, BTK enzyme (recombinant full-length BTK, hBTK) (Homo sapiens, UniProt Q06187).
T1 construct: recombinant protein from baculovirus-transfected Sf9 cells: full-length BTK, 6HIS-tag cleaved; 6HIS (cleaved yes); made in house; host or cells: baculovirus-transfected Sf9 cells
The experiment in a line: BTK enzyme activity assay, LANCE TR-FRET. Conditions: 50 pM hBTK, 2 μM biotin-A5-peptide, 25 μM ATP; 60 min compound & enzyme incubation. In kind it is biochemical. On the technique in general: TR-FRET usually uses a lanthanide donor and a delayed reading to cut background.

Amino acid sequences for entries named in this document (tags omitted). A change or cut given only in a name is not applied to a line headed by its entry.
UniProt Q06187: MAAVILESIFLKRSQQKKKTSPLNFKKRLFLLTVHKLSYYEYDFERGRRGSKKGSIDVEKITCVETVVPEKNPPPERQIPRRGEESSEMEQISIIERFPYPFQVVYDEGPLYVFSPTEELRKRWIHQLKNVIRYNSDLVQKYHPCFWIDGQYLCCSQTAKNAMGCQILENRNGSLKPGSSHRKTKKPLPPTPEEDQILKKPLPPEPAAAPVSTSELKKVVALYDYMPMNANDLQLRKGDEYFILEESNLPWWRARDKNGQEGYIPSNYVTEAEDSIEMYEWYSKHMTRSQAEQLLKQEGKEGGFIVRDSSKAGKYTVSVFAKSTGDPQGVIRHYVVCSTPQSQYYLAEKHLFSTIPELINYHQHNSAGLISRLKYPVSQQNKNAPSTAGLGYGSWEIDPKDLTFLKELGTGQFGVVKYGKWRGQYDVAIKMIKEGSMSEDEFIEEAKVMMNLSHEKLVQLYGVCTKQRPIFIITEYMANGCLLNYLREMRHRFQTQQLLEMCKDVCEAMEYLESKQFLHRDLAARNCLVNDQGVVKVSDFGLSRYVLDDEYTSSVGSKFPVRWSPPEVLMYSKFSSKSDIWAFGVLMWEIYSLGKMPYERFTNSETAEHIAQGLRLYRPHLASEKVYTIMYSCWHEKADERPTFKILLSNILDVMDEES

Molecules are shown by their SMILES.

In general, IC50 refers to the concentration that inhibits the measured activity by half. As for `COc1cc(C(=O)Nc2cc(C(F)(F)F)ccn2)ccc1-c1nc([C@@H]2CC[C@H]3CCC(=O)N3C2)n2ccnc(N)c12` [Example 88, 4-(8-amino-3-((6R,8aS)-3-oxooctahydroindolizin-6-yl)imidazo[1,5-a]pyrazin-1-yl)-3-methoxy-N-(4-(trifluoromethyl)pyridin-2-yl)benzamide], the IC50 was 0.19 nM.

Values taken from patent US20140206681A1, “BTK INHIBITORS” (priority 2013, published 2014).
